Test results published in PMC4496667, “Large-scale Direct Targeting for Drug Repositioning and Discovery” (Scientific Reports, 2015).

Amino acid sequences for entries named in this document (tags omitted). Residues count along the entry.
UniProt P00797, 67-406: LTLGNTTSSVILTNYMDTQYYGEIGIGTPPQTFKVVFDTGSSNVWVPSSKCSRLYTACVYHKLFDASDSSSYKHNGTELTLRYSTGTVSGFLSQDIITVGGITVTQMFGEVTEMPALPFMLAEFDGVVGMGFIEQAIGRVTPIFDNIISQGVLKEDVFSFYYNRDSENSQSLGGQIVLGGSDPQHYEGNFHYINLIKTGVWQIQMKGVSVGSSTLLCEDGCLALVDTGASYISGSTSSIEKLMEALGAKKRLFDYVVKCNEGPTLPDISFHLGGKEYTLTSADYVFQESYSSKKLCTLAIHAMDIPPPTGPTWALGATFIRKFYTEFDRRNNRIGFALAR
UniProt O00519, whole entry: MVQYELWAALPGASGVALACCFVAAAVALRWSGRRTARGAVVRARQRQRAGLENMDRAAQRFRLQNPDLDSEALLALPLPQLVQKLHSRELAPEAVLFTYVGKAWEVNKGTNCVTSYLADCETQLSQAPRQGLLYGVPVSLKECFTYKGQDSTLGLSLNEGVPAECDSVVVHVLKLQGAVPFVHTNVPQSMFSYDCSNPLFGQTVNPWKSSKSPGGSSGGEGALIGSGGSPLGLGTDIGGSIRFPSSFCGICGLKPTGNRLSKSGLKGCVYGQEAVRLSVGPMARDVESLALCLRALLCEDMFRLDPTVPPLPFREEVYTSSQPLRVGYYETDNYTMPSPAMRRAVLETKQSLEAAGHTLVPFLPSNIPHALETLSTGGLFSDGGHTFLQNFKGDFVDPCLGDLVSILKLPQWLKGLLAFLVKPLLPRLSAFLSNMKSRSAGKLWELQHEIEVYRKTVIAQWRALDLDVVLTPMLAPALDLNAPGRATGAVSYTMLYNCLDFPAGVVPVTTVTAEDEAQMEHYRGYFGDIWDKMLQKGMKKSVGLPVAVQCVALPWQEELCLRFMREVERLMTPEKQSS

Assays:
REN = target: T1, REN (Homo sapiens, UniProt P00797); assay: Renin Inhibitor Screening Assay Kit (REN); format: biochemical; details: target REN; mean ± SD of three independent repeats, Bliss method, eight data points
T1 construct: purchased Cayman Chemical
Description: (§1) To validate the practicability of WES model, we randomly selected Enpp2, Faah, PTGS2, PPARG, and REN, the five inflammation-related targets, and predicted their direct ligand-target interactions. The 24 top-scoring (hybrid-WES) and commercially available drug-target interactions (Table 3) were tested by the ligand-binding assays.
(§2) Enpp2 (Autotaxin Inhibitor Screening Assay Kit), Faah (FAAH Inhibitor Screening Assay Kit), PTGS2 (COX Inhibitor Screening Assay Kit), PPARG (PPARγ Ligand Screening Assay Kit), and REN (Renin Inhibitor Screening Assay Kit) were purchased from Cayman Chemical, Ann Arbor, MI, USA. […] The activity of targets was detected according to manufacturer’s instructions. IC50 values were determined using the Bliss method according to the eight data points per drug. The same drug-target interaction was repeated independently three times to obtain a mean IC50 value and its standard deviation.

Faah = target: T2, Faah (Homo sapiens, UniProt O00519); assay: FAAH Inhibitor Screening Assay Kit (Faah); format: biochemical; details: target Faah; mean ± SD of three independent repeats, Bliss method, eight data points
T2 construct: purchased Cayman Chemical
Description: as §1, §2

Pentagastrin (AWMDF)
IC50 (REN): 3.45 ± 4.8 µM | IC50 (Faah): 223 ± 8.3 µM
